Target: Protein arginine N-methyltransferase 1 (Homo sapiens, UniProt Q99873)

Chains of the proteins cited; added tags and fusions are not shown.
UniProt Q99873, whole entry: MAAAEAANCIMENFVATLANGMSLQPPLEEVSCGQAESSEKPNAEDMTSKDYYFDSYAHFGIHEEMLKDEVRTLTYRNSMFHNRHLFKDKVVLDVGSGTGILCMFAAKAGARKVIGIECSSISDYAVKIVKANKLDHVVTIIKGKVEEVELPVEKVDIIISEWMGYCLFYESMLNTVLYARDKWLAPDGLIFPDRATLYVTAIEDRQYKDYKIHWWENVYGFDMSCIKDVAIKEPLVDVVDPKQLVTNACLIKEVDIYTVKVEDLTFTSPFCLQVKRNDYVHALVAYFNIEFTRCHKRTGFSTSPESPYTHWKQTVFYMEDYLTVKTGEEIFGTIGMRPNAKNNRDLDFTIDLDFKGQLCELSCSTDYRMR

**Q.** `CNc1ncnc2c1ncn2[C@@H]1O[C@H](CN(CCI)CCC[C@H](N)C(=O)O)[C@@H](O)[C@H]1O` was tested. Which IC50 did it give?
**A.** > 100 µM
